# Measurements from Sander's compilation of Henry's law constants (doi:10.1021/ac00058a023).
# Assay: Henry solubility constant Hcp at 298.15 K (mol/(m3 Pa))
# Conditions: reference: Li and Carr (1993)
smiles,measurement,value
CCCCOCCCC [dibutyl ether],Henry solubility constant Hcp,0.0022
